Reference: PubChem BioAssay AID492956 (The Scripps Research Institute Molecular Screening Center, 2010)
The list shows a part of the results, in another mix than the full data. Some of these compounds have results that are not shown, active ones among them. Activity calls are given as the source filed them.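 Rule for the calls: active = inhibition above the mean over all tested compounds plus 3 SD (cut at about 30% in these data); inactive = the rest.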

target: Platelet-activating factor acetylhydrolase 2, cytoplasmic (Homo sapiens) (UniProt Q99487); assay: PAFAH2 enzyme inhibitors, primary screen, biochemical, fluorescence polarization, human (AID 492956); details: recombinant PAFAH2, FP-rhodamine activity probe, at 3.39 µM, active compounds read high;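 note: inhibitors block probe labeling of enzyme so polarization drops; 0% = enzyme with DMSO and 100% = wells lacking PAFAH2 protein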

| SMILES | inhibition |
| --- | --- |
| CN(C)C1CCCC1OC(=O)C(O)(c1ccccc1)c1ccccc1 (stereo not given) | inactive: -0.97% |
| CN(C)c1ccc(C(=O)NCC2(N(C)C)CCCCC2)cc1 | inactive: -3.13% |
| Cc1ccccc1C(=O)NCC1(N2CCCCC2)CCCCC1 | inactive: 2.53% |
| O=C(NCC1(N2CCCCC2)CCCCC1)c1cccc(Br)c1 | inactive: 7.48% |
| Cc1cc(C(=O)NCC2(N3CCCCC3)CCCCC2)ccc1[N+](=O)[O-] | inactive: -3.43% |
| CCN1CCCC(OC(=O)C2(O)c3ccccc3C=Cc3ccccc32)C1 (stereo not given) | inactive: -1.1% |
| COc1ccc(C(=O)NCC2(N(C)C)CCCCC2)cc1 | inactive: 3.44% |
| O=C(NCC1(N2CCCCC2)CCCCC1)c1cc(F)c(F)cc1Cl | inactive: -7.33% |
| C=CCN1CCN(CCOC(=O)C(O)(c2ccccc2)c2ccccc2)CC1 | inactive: -1.69% |
| CN1[C@@H]2CC[C@H]1CC(OC(=O)C(O)(c1ccccc1)c1ccccc1)C2 (stereo not given in full) | inactive: -2.51% |
| O=C(NCC1(N2CCCCC2)CCCCC1)c1cc([N+](=O)[O-])ccc1Cl | inactive: 1.06% |
| Cc1ccc(C(=O)NCC2(N3CCCCC3)CCCCC2)cc1 | inactive: -11.1% |
| CC(C)N1C(=O)CC2(CCN(CCOC(=O)C(O)(c3ccccc3)c3ccccc3)CC2)C1=O | inactive: 0.91% |
| COc1cc(SC)ccc1C(=O)NCC1(N(C)C)CCCCC1 | inactive: -4.76% |
| CCN(CC)CC(C)C(C)OC(=O)C(O)(c1ccccc1)c1ccccc1 (stereo not given) | inactive: -0.15% |
| O=C(OC1CN2CCC1CC2)C(CO)(c1ccccc1)c1ccccc1 (stereo not given) | inactive: 2.63% |
| CN(C)c1cccc(C(=O)NCC2(N(C)C)CCCCC2)c1 | inactive: -1.81% |
| O=C(OCCN1CCCC1)C(O)(c1ccccc1)c1ccccc1 | inactive: 4.39% |
| CC(C)Oc1ccc(C(=O)NCC2(N(C)C)CCCCC2)cc1 | inactive: -0.48% |
| COc1ccc(Br)c(C(=O)NCC2(N3CCCCC3)CCCCC2)c1 | inactive: 0.51% |
| COc1cc(C(=O)NCC2(N(C)C)CCCCC2)c([N+](=O)[O-])cc1OC | inactive: 3.39% |
| CN(C)C1(CNC(=O)c2ccc(Br)cc2)CCCCC1 | inactive: 4.31% |
| O=C(NCC1(N2CCCCC2)CCCCC1)c1cccc(Cl)c1 | inactive: -12.1% |
| COc1ccc(Cl)cc1C(=O)NCC1(N(C)C)CCCCC1 | inactive: -5.14% |
| COc1cccc(C(=O)NCC2(N3CCCCC3)CCCCC2)c1 | inactive: -1.53% |
